Results taken from ChEMBL document CHEMBL4804282, “Quinoline-based compounds and methods of inhibiting cdk8/19” (2020).
The source made the active and inactive calls. No cut-off for these calls is given here.

Amino acid sequences for entries named in this document (tags omitted). A change or cut given only in a name is not applied to a line headed by its entry.
UniProt P49336: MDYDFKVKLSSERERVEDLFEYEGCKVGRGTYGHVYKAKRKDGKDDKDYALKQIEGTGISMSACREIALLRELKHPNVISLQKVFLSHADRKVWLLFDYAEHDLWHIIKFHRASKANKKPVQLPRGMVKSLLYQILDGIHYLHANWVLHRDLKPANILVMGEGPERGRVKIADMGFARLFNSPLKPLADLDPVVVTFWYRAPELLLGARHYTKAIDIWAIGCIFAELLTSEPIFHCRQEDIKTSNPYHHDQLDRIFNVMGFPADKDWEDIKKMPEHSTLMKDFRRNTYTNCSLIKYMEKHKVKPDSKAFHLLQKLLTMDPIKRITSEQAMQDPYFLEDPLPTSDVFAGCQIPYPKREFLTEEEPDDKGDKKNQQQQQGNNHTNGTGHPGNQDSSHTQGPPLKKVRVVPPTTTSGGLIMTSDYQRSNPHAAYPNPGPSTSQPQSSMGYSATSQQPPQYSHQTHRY
UniProt Q9BWU1: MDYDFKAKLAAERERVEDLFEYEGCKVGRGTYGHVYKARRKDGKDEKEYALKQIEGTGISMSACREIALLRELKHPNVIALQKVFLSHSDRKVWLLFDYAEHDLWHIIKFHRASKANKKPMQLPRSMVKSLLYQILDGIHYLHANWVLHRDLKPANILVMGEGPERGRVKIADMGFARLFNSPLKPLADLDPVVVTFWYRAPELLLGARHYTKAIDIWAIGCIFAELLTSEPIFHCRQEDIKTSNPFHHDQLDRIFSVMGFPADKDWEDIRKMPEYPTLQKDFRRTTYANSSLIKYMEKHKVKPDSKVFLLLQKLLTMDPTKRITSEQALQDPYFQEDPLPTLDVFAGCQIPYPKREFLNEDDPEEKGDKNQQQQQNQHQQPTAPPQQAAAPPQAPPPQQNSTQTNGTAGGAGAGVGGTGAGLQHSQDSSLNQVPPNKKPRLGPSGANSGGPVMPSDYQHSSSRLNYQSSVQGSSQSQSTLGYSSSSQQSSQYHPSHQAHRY

Experiments:
[1] = biological target: T1, Cyclin-dependent kinase 8/19 (Homo sapiens) (UniProt P49336+Q9BWU1); assay: Inhibition of CDK8/CDK19 in HEK293 cells assessed as reduction in JUN expression at 1 uM incubated for 2 hrs and measured after 24 hrs of compound wash-off; assay type: cell-based
[2] = biological target: T1, Cyclin-dependent kinase 8/19 (Homo sapiens); assay: Inhibition of CDK8/CDK19 in HEK293 cells assessed as reduction in MYC expression at 1 uM incubated for 2 hrs and measured after 24 hrs of compound wash-off; assay type: cell-based

inhibition [1]: Active | inhibition [2]: Active
SMILES: CN1CCN(C(=O)c2ccc3cc(CCNc4ncnc5ccc(C#N)cc45)ccc3c2)CC1 [SENEXIN B]
